Molecules are shown by their SMILES. Where two headings read alike, the source gives them in different places.

Chains of the proteins cited; added tags and fusions are not shown. Lines headed by an entry give the natural chain unless they say otherwise; changes in a name come on top.
UniProt P01116: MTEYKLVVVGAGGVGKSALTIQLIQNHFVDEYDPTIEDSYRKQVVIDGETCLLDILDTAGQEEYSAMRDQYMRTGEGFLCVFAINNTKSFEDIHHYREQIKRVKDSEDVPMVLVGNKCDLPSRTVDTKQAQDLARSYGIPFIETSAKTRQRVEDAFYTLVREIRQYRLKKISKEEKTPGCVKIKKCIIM

The target in the experiment is GDP-bound KRAS protein (aa 1-169), containing both G12C and C118A amino acid substitutions (Homo sapiens (Human), UniProt P01116, C118A/G12C). In words: Coupled Nucleotide Exchange Assay. The experiment is classed as biochemical. On the procedure:
For compounds in Table 9, the following assay conditions were employed:
Coupled Nucleotide Exchange Assay:
The assay plates were then read on a PerkinElmer EnVision Multilabel Reader, using AlphaScreen® technology, and data were analyzed using a 4-parameter logistic model to calculate IC50 values.

The mark [1] stands for this setting: read-out: Coupled Exchange IC50 (2 h), 2 h compound pre-incubation.
Setting [2] is: read-out: Coupled Exchange IC50 (20 h), 20 h compound pre-incubation.

For the compound `C=CC(=O)N1CC(NC(=O)Cn2cc(C(=O)N3CCc4cc(Br)ccc4C3)c3cc(Br)ccc32)C1` [Example 106], the IC50 (commonly the midpoint of a concentration-inhibition curve) under setting [1] came to 0.63 µM and the IC50 under setting [2] worked out at 0.18 µM.
With `C=CC(=O)N1CC(NC(=O)Cn2cc(C(=O)N3CCc4cc(Br)ccc4C3)c3cc(Br)ccc32)C1` [Example 104], the IC50 came to 2.32 µM under setting [1] and 0.66 µM under setting [2].

The values are drawn from patent publication US11053226B2, “KRAS G12C inhibitors and methods of using the same” (Amgen Inc., priority 2018, dated 2021).
